# Measured values taken from article PMC3070360 (Journal of natural products, 2011).
# How the values were obtained:
# HeLa cells = assay: Cell-based microfilament disruption assay, HeLa; conditions: 10 nM to 5 μM
# NCI 60 cell lines = assay: NCI 60 cell line screen, single dose and overall cytotoxicity; assay type: cell-based
# Maximum tolerated dose = conditions: in vivo
substance,measurement,setting,value
(+)-jasplakinolide Z3 [Compound 11],Divergence between cytotoxicity (HCT-116) and MF activity (HeLa),HeLa cells,100 fold
jasplakinolide M [Compound 6],Diminished cytotoxicity (summary in the conclusions),NCI 60 cell lines,≈ 1 uM
jasplakinolide [Compound 1],MTD (maximum tolerated dose),Maximum tolerated dose,0.625 mg/kg
